Data on two compounds can be found in patent US20060083680A1, “Diphenyl ether derivatives and their use for imaging serotonin transporters” (The Trustees of the University of Pennsylvania, priority 2004, published 2006).

The chains behind the UniProt entries cited, without tags or fusion partners.
UniProt P31652, whole entry: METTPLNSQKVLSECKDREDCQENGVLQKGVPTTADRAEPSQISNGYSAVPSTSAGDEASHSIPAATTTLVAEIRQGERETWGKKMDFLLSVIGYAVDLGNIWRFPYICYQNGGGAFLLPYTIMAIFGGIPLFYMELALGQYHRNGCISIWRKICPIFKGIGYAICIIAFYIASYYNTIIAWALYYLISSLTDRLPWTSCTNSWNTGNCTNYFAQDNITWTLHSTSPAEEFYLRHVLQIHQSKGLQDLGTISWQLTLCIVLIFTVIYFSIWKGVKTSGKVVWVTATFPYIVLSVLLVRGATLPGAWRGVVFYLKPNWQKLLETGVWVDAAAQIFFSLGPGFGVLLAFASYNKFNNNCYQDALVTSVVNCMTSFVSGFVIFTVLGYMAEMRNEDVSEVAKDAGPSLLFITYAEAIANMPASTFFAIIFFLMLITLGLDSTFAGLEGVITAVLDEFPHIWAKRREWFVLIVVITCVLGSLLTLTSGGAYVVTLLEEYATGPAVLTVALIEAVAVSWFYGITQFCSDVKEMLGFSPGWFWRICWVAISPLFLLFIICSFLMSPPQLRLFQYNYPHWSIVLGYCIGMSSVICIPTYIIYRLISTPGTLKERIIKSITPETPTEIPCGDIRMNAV
UniProt P23977, whole entry: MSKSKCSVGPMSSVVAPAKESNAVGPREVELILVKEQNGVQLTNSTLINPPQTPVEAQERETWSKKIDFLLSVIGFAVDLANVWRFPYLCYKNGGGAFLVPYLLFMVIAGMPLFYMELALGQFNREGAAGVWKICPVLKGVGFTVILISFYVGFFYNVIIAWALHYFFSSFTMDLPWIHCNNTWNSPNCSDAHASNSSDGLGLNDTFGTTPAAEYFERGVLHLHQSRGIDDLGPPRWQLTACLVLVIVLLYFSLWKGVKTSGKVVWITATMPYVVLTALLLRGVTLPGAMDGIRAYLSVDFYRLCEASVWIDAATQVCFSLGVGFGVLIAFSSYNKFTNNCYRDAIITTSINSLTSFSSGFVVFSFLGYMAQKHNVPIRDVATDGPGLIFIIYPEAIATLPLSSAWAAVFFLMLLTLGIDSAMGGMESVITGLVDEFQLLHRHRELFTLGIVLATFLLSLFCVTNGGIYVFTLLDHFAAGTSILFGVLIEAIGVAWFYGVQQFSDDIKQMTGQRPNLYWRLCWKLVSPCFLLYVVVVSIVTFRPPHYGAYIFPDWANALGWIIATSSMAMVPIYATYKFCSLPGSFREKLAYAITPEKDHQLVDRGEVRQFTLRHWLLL

The target in experiment [1] is T1, SERT (serotonin transporter) (Rattus norvegicus, UniProt P31652).
T1 construct: membrane homogenates
The experiment in a line: In vitro binding assay, membranes of LLC-PK1 cells expressing SERT, [^125I]IDAM. Here is the method: Preparation of membrane homogenates: LLC-PK1 cells from pig kidney permanently expressing DAT, NET and SERT, respectively (LLC-DAT, LLC-NET and LLC-SERT) were kindly provided by Dr. G. Rudnick at Yale University. These cells were grown to confluence as a monolayer on 15 cm petri dish as reported previously. […] Cells were then washed once with phosphate buffer saline (w/ Ca^2+ and Mg^2+) (Bio-Whittaker) and harvested with 10 mL PBS by scraping. The cell suspensions were homogenized on ice for 20 strokes and centrifuged at 17,000 rpm for 20 min at 4° C. The pellets were re-suspended in PBS, frozen quickly in liquid N2 and stored in a −70° C. freezer.
Binding assays: Binding assays were performed in a final volume of 0.2 mL. […] Incubation was carried out for one h at room temperature and the bound ligand was collected on glass fiber filters (Schleicher & Schuell No. 25, Keene, N.H.) presoaked with 1% polyethylenimine (Sigma, St. Louis, Mo.) and counted in a gamma counter (Packard 5000). Results of competition experiments were subjected to nonlinear regression analysis using EBDA (Elsevier-BIOSOFT, Cambridge, UK).

In experiment [2] the target is T2, SERT binding sites (Rattus norvegicus, UniProt P31652).
T2 construct: from tissue; host or cells: rat brain in vivo (hypothalamus, cortex, striatum, hippocampus, cerebellum); ex vivo brain sections
The experiment in a line: In vivo competitive binding / blocking of [^125I]4 regional uptake. As to conditions: rats, drug 2 mg/kg i.v. 5 min prior to tracer, 120 min after [^125I]4. The source says:
The reduction of regional specific binding in the drug-pretreated rats was compared to the control animals with saline pretreatment.

The target in experiment [3] is T3, DAT (dopamine transporter) (Rattus norvegicus, UniProt P23977).
T3 construct: membrane homogenates
The experiment in a line: In vitro binding assay, membranes of LLC-PK1 cells expressing DAT, [^125I]IPT. Here is the method:
Preparation of membrane homogenates: LLC-PK1 cells from pig kidney permanently expressing DAT, NET and SERT, respectively (LLC-DAT, LLC-NET and LLC-SERT) were kindly provided by Dr. G. Rudnick at Yale University. These cells were grown to confluence as a monolayer on 15 cm petri dish as reported previously. (Gu, H., Wall, S. C. and Rudnick G., Journal of Biological Chemistry, 269: 7124-7130 (1194)). Cells were then washed once with phosphate buffer saline (w/ Ca^2+ and Mg^2+) (Bio-Whittaker) and harvested with 10 mL PBS by scraping. The cell suspensions were homogenized on ice for 20 strokes and centrifuged at 17,000 rpm for 20 min at 4° C. The pellets were re-suspended in PBS, frozen quickly in liquid N2 and stored in a −70° C. freezer.
Binding assays: Binding assays were performed in a final volume of 0.2 mL. Aliquots of membrane suspensions (100 μL, corresponding to 30-40 g protein) were mixed with 50 mM Tris-HCl, pH 7.4, 120 mM NaCl and 0.1% BSA (all from Sigma, St. Louis, Mo.), 0.4 nM [^125I]IPT or [^125I]IDAM, and 8-10 concentrations (10^−10 to 10^−5 M) of competing drugs. […] Incubation was carried out for one h at room temperature and the bound ligand was collected on glass fiber filters (Schleicher & Schuell No. 25, Keene, N.H.) presoaked with 1% polyethylenimine (Sigma, St. Louis, Mo.) and counted in a gamma counter (Packard 5000). […]

SMILES strings stand for the structures. Read-outs that look alike come from different tables or passages of the source.

Consider `CSc1ccc([C@@H]2CN3CCC[C@@H]3c3ccccc32)cc1` [(+)McN5652], for which the Ki (as a rule, the equilibrium dissociation constant of an inhibitor or competing ligand from its target) in experiment [1] (LLC-PK1 cells expressing SERT, read-out: Ki SERT) was 0.009 ± 0.002 nM.
Turning to `CNCCC(Oc1ccccc1OC)c1ccccc1` (stereo not shown) [Nisoxetine], in experiment [2], the “effect of pretreatment on specific binding/uptake of [^125I]4 in hypothalamus” value is recorded as “did not show any significant effect”. The Ki in experiment [3] was > 1000 nM; in experiment [1], 203 ± 4 nM.
